Test results taken from ChEMBL document CHEMBL1158545, “3'-(1,2,3-Triazol-1-yl)-3'-deoxythymidine analogs as substrates for human and Ureaplasma parvum thymidine kinase for structure-activity investigations” (Bioorg Med Chem, 2010).

Substrate: Cc1cn([C@H]2C[C@H](n3cc(-c4ccc(F)cc4)nn3)[C@@H](CO)O2)c(=O)[nH]c1=O
Details: Ureaplasma parvum

B1: Thymidine kinase (Ureaplasma parvum serovar 3 (strain ATCC 700970)), Q9PPP5 (protein)
chain: MAKVNAFSKKIGWIELITGPMFAGKTAELIRRLHRLEYADVKYLVFKPKIDTRSIRNIQSRTGTSLPSVEVESAPEILNYIMSNSFNDETKVIGIDEVQFFDDRICEVANILAENGFVVIISGLDKNFKGEPFGPIAKLFTYADKITKLTAICNECGAEATHSLRKIDGKHADYNDDIVKIGCQEFYSAVCRHHHKVPNRPYLNSNSEEFIKFFKNKKRNKNI
Km: 29 µM
